From US20140294856A1, “COMBINATION TREATMENT COMPRISING A HDAC6 INHIBITOR AND AN AKT INHIBITOR” (priority 2011, published 2014)

By UniProt entry, the sequences of proteins in these tests, tags left out. Where a name states a change or a piece, a line headed by the entry shows the natural chain unless it says otherwise.
UniProt Q9UNQ0: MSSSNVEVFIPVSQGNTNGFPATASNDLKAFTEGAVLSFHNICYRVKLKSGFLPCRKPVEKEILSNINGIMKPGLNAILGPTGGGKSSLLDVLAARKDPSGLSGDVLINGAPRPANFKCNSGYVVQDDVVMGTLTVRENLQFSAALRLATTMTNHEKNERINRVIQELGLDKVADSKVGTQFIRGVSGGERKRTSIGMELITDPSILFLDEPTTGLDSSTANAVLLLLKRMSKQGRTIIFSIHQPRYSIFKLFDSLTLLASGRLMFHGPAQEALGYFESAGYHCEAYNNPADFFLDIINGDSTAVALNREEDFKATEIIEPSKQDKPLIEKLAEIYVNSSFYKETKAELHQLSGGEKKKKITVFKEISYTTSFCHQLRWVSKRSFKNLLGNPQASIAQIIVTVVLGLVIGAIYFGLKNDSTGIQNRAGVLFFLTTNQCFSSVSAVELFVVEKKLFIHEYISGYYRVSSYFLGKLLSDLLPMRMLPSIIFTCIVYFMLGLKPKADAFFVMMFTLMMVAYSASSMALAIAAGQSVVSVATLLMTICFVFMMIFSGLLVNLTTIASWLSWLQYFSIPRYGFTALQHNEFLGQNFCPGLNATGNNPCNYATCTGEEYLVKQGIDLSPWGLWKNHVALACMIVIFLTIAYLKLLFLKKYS

Target: ABCG2 (Homo sapiens, UniProt Q9UNQ0)

SMILES: O=C(CCCCCCC(=O)Nc1ccccc1)NO [SAHA, suberanoyl hydroxamic acid]
- reversal of resistance by FTC in MCF7-MX cells: 3.9 fold
